This is a selection; strong and weak results do not stand in their true shares. Active and inactive are the calls of the source. The rule behind the calls is not given here.

These results are taken from ChEMBL document CHEMBL1255231.

The species named for the assay is Mus musculus. Kind of assay: Inhibition of neurosphere proliferation of mouse neural precursor cells by MTT assay. Format: functional.
With `CN(C(=O)Cc1ccccc1)[C@H]1CC[C@@]2(CCCO2)C[C@@H]1N1CCCC1`, the inhibition result was “inactive”. For the compound `CN(CCCl)Cc1cc(Cl)c(NC2=NCCN2)c(Cl)c1`, the inhibition result was “inactive”.

Regarding `CN(C)c1ccc(N(C)C)cc1`, the inhibition result was “inactive”. On to `CN(C(=O)Cc1ccc(Cl)c(Cl)c1)[C@H]1CC[C@@]2(CCCO2)C[C@@H]1N1CCCC1`, for which the inhibition entry is “inactive”.
